Results reported in ChEMBL document CHEMBL5360615, “Pharmacological and Physicochemical Properties Optimization for Dual-Target Dopamine D3 (D3R) and μ-Opioid (MOR) Receptor Ligands as Potentially Safer Analgesics” (J Med Chem, 2023).

Amino acid sequences for entries named in this document (tags omitted).
UniProt P42866, whole entry: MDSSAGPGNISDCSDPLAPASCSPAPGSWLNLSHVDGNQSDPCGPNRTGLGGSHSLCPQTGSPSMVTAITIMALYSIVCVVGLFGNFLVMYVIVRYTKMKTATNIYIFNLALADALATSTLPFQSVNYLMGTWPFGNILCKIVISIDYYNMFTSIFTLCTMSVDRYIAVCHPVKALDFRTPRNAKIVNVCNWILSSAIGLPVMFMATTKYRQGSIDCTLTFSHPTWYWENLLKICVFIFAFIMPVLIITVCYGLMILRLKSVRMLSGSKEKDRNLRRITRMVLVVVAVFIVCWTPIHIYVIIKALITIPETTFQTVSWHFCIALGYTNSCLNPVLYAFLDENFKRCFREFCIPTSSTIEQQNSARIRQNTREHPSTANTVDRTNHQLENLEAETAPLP

What was measured:
Type in all cases: functional, cell-based
[1] = target: T1, Mu-type opioid receptor (Mus musculus, UniProt P42866); experiment: Partial agonist activity at Rluc8 fused mouse MOR transfected in HEK293T cells assessed as Nb33 recruitment using coelenterazine as substrate incubated for 40 mins by BRET assay
[2] = target: T1, Mu-type opioid receptor; experiment: Partial agonist activity at SNAP-tagged mouse MOR transfected in HEK293T cells coexpressing wild type Galpha-i2, venus-tagged Gbeta-1 (156 to 239 residues), venus-tagged Ggamma2 (1 to 155 residues) and Rluc8 fused masGRK3ct assessed as Galpha-i2 activation using coelenterazine as substrate incubated for 40 mins by BRET based GPA assay
[3] = target: T1, Mu-type opioid receptor; experiment: Partial agonist activity at Rluc8 fused mouse MOR transfected in HEK293T cells coexpressing wild type GRK2 assessed as arrestin-3 recruitment using coelenterazine as substrate incubated for 40 mins by BRET assay

## COc1ccsc1CNCC[C@@]1(c2ccccn2)CCOC2(CCCC2)C1 [OLICERIDINE]
[1]
  EC50: 58.5 nM
[2]
  EC50: 2.4 nM
[3]
  EC50: 32.5 nM
